Measured values published in ChEMBL document CHEMBL3880381, “Selective inhibitors of aggrecanase in osteoarthritis treatment” (2001).

Biological target: T1, Interstitial collagenase (Homo sapiens, UniProt P03956)
T1 sequence (P03956 whole entry): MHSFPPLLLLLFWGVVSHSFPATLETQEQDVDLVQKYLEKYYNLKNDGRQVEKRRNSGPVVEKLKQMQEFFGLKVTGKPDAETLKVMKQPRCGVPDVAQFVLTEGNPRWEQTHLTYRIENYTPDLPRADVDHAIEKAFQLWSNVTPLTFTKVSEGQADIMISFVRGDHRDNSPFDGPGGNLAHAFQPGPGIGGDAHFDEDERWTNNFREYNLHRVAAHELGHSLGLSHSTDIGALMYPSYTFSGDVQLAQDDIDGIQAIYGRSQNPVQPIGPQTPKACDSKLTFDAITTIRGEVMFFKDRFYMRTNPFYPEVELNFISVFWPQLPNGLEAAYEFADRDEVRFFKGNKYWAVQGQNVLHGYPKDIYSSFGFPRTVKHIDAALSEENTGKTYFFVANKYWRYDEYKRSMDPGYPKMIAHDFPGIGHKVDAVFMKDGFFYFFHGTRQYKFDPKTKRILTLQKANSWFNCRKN
Experiment: Inhibition of trypsin-activated recombinant human collagenase 1 preincubated with protein followed by addition of DNP-Pro-Cha-Gly-Cys(Me)-His-Ala-Lys(NMA)-NH2 as substrate measured after 20 mins by fluorescence analysis

Row | pIC50 | SMILES
1 | 8.52 | CNC(=O)[C@H](Cc1ccc(OC)cc1)NC(=O)[C@@H](CC(=O)NO)CC(C)C
2 | 6.00 to 6.70 | C[C@@]1(O)CCCN(S(=O)(=O)c2ccc(OCc3ccccc3Cl)cc2)[C@H]1C(=O)NO
3 | 6.00 to 6.70 | Cc1ccc(F)cc1COc1ccc(S(=O)(=O)N2CCC[C@@](C)(O)[C@@H]2C(=O)NO)cc1
4 | 6.00 to 6.70 | Cc1cc(F)ccc1COc1ccc(S(=O)(=O)N2CCC[C@@](C)(O)[C@@H]2C(=O)NO)cc1

pIC50: −log10 of the molar value.
